Compound activity as filed in PubChem BioAssay.
The list is not random: actives were taken first. Their share in the collection is about 0.34%.
Vif-A3F inh – inhibitors of Vif-A3F interaction; HeLa A3F-eYFP + Vif (tagged APOBEC3F with the HIV-1 protein that degrades it), YFP fluorescence increase; actives 0.2% (n = 390,000); Potency, µM (top dose mostly 46.1 µM), inactives show at the highest dose activity, negative = active; also: % of control where 0% means no effect; nearly all actives have a fitted effect of over 65% in size
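Fluorescence increase (Ex 488/Em 500-530) after overnight compound treatment at 37 deg C flags inhibition of Vif-driven A3F-eYFP loss in stable HeLa A3F-eYFP/Vif cells seeded overnight beforehand.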
Eya2 phos inh – blocks the phosphatase activity of human Eya2; O00167; recombinant Eya2, OMFP fluorescence dephosphorylation (OMFP is methylfluorescein phosphate); Potency, µM (doses to about 76.9 µM), inactives show at the top dose activity, negative = inhibition, usual class: inhibitors; actives 0.006% (n = 330,000); also: % is scaled to controls: 0 for no effect and ±100 for the full control effect
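Eya2 protein (added as 0.2 uM solution) was preincubated with compound for 10 min at ambient temperature in 50 mM HEPES pH 7.5, 50 mM NaCl, 5 uM MgCl2, 0.05% BSA, 1 mM DTT. OMFP (added at 50 uM) then reacted 10 min; fluorescence read at 485/525 nm.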
Vif-APOBEC3G blk – Vif-A3G binding inhibition; Q9HC16; HeLa A3G-eYFP + Vif (tagged APOBEC3G with the HIV-1 protein that degrades it), YFP fluorescence, overnight; Potency, µM (series often up to 46.1 µM), for the others: top-dose activity, negative = active, most hits filed as inhibitors; actives 0.076% (n = 410,000); AID 602310; also: % is scaled to controls: 0 for no effect and ±100 for the full control effect; nearly all actives have a fitted effect of over 60% in size
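Read-out is eYFP fluorescence (Ex 488/Em 500-530) from Vif-expressing HeLa A3G-eYFP cells; more signal means A3G escaped Vif-mediated degradation. Cells plated overnight, compound pinned in, incubated overnight at 37 deg C.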
Rango release inh – inhibitors of RanGTP-induced Rango-importin beta complex dissociation | O95149+P62826 | Biochemical FRET Rango-importin beta, RanGTP-induced dissociation | Potency, µM (top dose mostly 46.1 µM), without a hit: top-dose activity change, negative = inhibition | actives 0.071% (n = 340,000) | AID 540253; calls by dose curve; also: % of control where 0% means no effect; nearly all actives have a fitted effect of over 45% in size
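Recombinant Rango FRET biosensor (EYFP–snurportin 1 IBB–cerulean CFP10) at 0.1 uM premixed with 0.25 uM importin beta in PBS, 1 mM DTT, 0.02% Tween-20, 0.1% BSA. Compound added 5 min; RanGTP-RCC1 (0.6 uM Ran, 2 mM GTP, 0.2 uM RCC1) then triggers release, read at 45 min.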
Rango-impB inh – inhibitors of Rango-importin beta complex formation; Potency, µM (titrated, usually from 92.2 µM), for the others: at the highest dose inhibition of complex formation; actives 0.031% (n = 340,000); Rango CFP/YFP FRET sensor + importin beta, 45 min; Q14974; AID 540263; calls by dose curve;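 also: 0% = DMSO wells and 100% = buffer wells lacking importin beta; nearly all actives have a fitted effect of over 15% in size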
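FRET biosensor (snurportin 1 IBB flanked by EYFP and cerulean), 50 nM, with compound 5 min, then 0.125 microM importin beta in PBS, 1 mM DTT, 0.02% Tween-20, 0.1% BSA. CFP/YFP ratio read after 45 min at room temperature; pre-read flags interference.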
S-ASM inh – human S-ASM enzyme inhibition | placental ASM, HMU-PC fluorogenic substrate, 60 min | actives 0.006% (n = 340,000) | Potency, µM (series often up to 57.5 µM), for the others: at the top dose activity change, negative = inhibition, most hits filed as inhibitors | P17405
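HMU-PC0 cleavage (9 uM final) by human placental ASM, 60 min at 37 °C following 10 min compound exposure at RT; stopped at pH 10, fluorescence Ex 386/Em 447 nm.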
* marks the source's active call; other numbers are inactive results; i = inactive; ? = inconclusive; . = no result given. Unless noted, calls follow the shape of the dose curve; as a rule, active = well fitted curve in the direction sought with a large enough effect; inconclusive = small, poorly fitted or top-dose-only effect, or another doubt; inactive = no such curve, though single readings can be large; an effect the other way counts as inactive or inconclusive. Potency is read from the fitted curve at half-maximal effect.

The opening two records (preview)
#	SMILES	Vif-A3F inh	Eya2 phos inh	Vif-APOBEC3G blk	Rango release inh	Rango-impB inh	S-ASM inh
1	COC(=O)c1cc(NC(=O)c2ccccc2)c(=O)oc1/C=C/Nc1ccc(Oc2ccccc2)cc1	8.91µM*	31.8%	?	?	?	0.8%
2	Cc1ccc(CNC(=O)c2ccc3c(c2)NC(=O)C(CS(=O)(=O)Cc2cccc(C)c2)N3)cc1 (stereo unspecified)	22.4µM*	.	-13.2%	.	.	.

The whole of this part (from the top)
#	SMILES	Vif-A3F inh	Eya2 phos inh	Vif-APOBEC3G blk	Rango release inh	Rango-impB inh	S-ASM inh
1	COC(=O)c1cc(NC(=O)c2ccccc2)c(=O)oc1/C=C/Nc1ccc(Oc2ccccc2)cc1	8.91µM*	31.8%	?	?	?	0.8%
2	Cc1ccc(CNC(=O)c2ccc3c(c2)NC(=O)C(CS(=O)(=O)Cc2cccc(C)c2)N3)cc1 (stereo unspecified)	22.4µM*	.	-13.2%	.	.	.
3	C[n+]1cc(C(=O)N2CCCCC2)ccc1/C=C/c1c[nH]c2ccccc12	?	?	11.2µM*	?	?	?
4	O=C(C(=O)N1CCCCCC1)c1c[nH]c2ccccc12	-1.5%	-0.3%	0.5%	-0.9%	6.3%	3.0%
5	CC(C)(C)n1ncc2c(=O)n(Cc3cc(Cl)ccc3Cl)cnc21	.	.	1.9%	.	.	.
6	Cc1ccc(-n2c(O)c(C=Nc3ccc4c(c3)OCO4)c3ccccc3c2=O)cc1C	?	-2.6%	-10.5%	?	?	27.6%
7	Cc1cc(N=Cc2c(O)n(-c3ccc4c(c3)OCO4)c(=O)c3ccccc23)ccn1	25.1µM*	-2.8%	?	?	?	-1.6%
8	CCOCCc1nnc(NC(=O)C(=O)c2cc(C)n(-c3ccc(C)cc3C)c2C)s1	0.3%	.	1.3%	.	.	.
9	COc1ccc2nc3ccccc3nc2c1NC(=O)c1ccc(Br)cc1	6.31µM*	0.9%	?	0.9%	5.3%	-0.6%
10	COc1ccc2nc3ccccc3nc2c1NC(=O)c1ccc(Cl)cc1	11.2µM*	7.7%	-11.3%	-7.7%	0.0%	-3.6%
11	CCCS(=O)(=O)N1CC(=O)N(c2cccc(F)c2)C(C)(C(=O)NC2CCCCCC2)C1 (stereo unspecified)	5.0%	.	4.5%	.	.	.
12	CCN1CCN(Cc2ccc(NC(=O)c3ccc(C)c(/C=C/c4cnc(Nc5cc(N6CCNCC6)nc(C)n5)cn4)c3)cc2C(F)(F)F)CC1	31.6µM*	5.6%	?	?	?	i
13	COC(=O)c1sccc1NC(=S)Nc1cc(C)cc(C)c1	25.1µM*	-2.4%	1.0%	56.8%	8.6%	.
14	COC(=O)c1sccc1NC(=S)Nc1ccccc1	-9.3%	-10.7%	-2.9%	1.6%	?	-1.2%
15	O=Cc1c[nH]c2cccc(OCc3ccccc3)c12	0.6%	-20.0%	-22.4%	6.1%	58µM*	7.2%
16	CC1(C)c2[nH]c3ccccc3c2C[C@@H]2C(=O)N(Cc3ccccc3Cl)C(=O)N21	-8.0%	.	2.3%	11.6µM*	?	6.8%
17	CC(C)C/C(O)=C/c1nc2cc(Cl)ccc2oc1=O	-9.0%	-2.1%	-1.0%	14.6µM*	?	-0.4%
18	O=c1oc2ccc(Cl)cc2nc1/C=C(\O)c1ccco1	1.2%	?	?	-18.5%	-1.0%	-1.8%
19	CC(C)(C)n1ncc2c(=O)n(Cc3cccc(F)c3)cnc21	.	.	2.1%	.	.	.
20	CC(C)(C)n1ncc2c(=O)n(Cc3ccccc3C#N)cnc21	.	.	0.8%	.	.	.
21	CCCSc1ncc(Cl)c(C(=O)Nc2sc3c(c2C(N)=O)CCCC3)n1	.	.	7.08µM*	.	.	.
22	COc1ccc2sc(N(Cc3cccnc3)C(=O)c3ccc4c(c3)OCCO4)nc2c1	0.9%	.	14.6%	.	.	.
23	CC(=O)Nc1ccc(S(=O)(=O)Nc2nc3ccccc3nc2Nc2ccc3ccccc3c2)cc1	?	-4.4%	-13.7%	-23.1%	-2.8%	173.7%
24	CC(=O)Nc1ccc(S(=O)(=O)Nc2nc3ccccc3nc2Nc2ccc(N)cc2)cc1	12.6µM*	-2.0%	-6.8%	?	?	-1.7%
25	CC(=O)Nc1ccc(S(=O)(=O)Nc2nc3ccccc3nc2Sc2nncn2C)cc1	10µM*	17.8%	-15.6%	?	?	36.5%
26	Cn1ccnc1Sc1nc2ccccc2nc1NS(=O)(=O)c1ccccc1	25.1µM*	4.4%	-13.3%	-16.3%	?	10.9%
27	COC(=O)c1cc(Nc2nc3ccccc3nc2NS(=O)(=O)c2ccc(C)cc2)ccc1Cl	11.2µM*	.	-7.4%	.	.	.

Single values from the list:
`COC(=O)c1sccc1NC(=S)Nc1cc(C)cc(C)c1` – Vif-APOBEC3G blk = 1.0%
`CC(C)C/C(O)=C/c1nc2cc(Cl)ccc2oc1=O` – Vif-APOBEC3G blk = -1.0%
`COC(=O)c1sccc1NC(=S)Nc1ccccc1` – Vif-APOBEC3G blk = -2.9%
